Laboratory results from US10702498B2 (priority 2015, dated 2020).
Like-named read-outs stand apart in the source and are kept apart here.

Chains of the proteins cited; added tags and fusions are not shown.
UniProt P35372, whole entry: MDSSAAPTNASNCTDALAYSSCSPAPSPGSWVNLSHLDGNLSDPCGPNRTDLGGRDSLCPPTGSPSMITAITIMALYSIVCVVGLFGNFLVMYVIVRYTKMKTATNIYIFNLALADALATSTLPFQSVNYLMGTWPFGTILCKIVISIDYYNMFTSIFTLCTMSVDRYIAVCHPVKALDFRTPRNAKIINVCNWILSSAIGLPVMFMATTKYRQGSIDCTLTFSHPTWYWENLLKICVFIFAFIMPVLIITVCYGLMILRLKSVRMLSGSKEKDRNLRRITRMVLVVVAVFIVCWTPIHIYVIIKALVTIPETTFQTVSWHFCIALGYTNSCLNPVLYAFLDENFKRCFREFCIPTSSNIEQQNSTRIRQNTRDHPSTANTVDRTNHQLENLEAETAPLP

Columns and labels:
MOR = MOR (Homo sapiens (Human), UniProt P35372); test: Receptor binding, [3H]diprenorphine
mice = test: Open field locomotor response; conditions: mouse

CN(C)[C@H](CNC(=O)NCCc1cn(CCOCCOCCOCCN=[N+]=[N-])nn1)Cc1ccc(O)cc1 [DD 165, (S)-1-(2-(1-(2-(2-(2-(2-azidoethoxy)ethoxy)ethoxy)ethyl)-1H-1,2,3-triazol-4-yl)ethyl)-3-(2-(dimethylamino)-3-(4-hydroxyphenyl)propyl)urea]
Ki (MOR; binding affinity Ki [nM] hMOR): 3500 nM

CN(C)[C@H](CNC(=O)NCCc1cn(CCOCCOCCN=[N+]=[N-])nn1)Cc1ccc(O)cc1 [DD 161, (S)-1-(2-(1-(2-(2-(2-azidoethoxy)ethoxy)ethyl)-1H-1,2,3-triazol-4-yl)ethyl)-3-(2-(dimethylamino)-3-(4-hydroxyphenyl)propyl)urea]
Ki (MOR): 4700 nM

CN1CC[C@]23c4c5ccc(O)c4O[C@H]2[C@@H](O)C=C[C@H]3[C@H]1C5 [Morphine, morphine, reference compound]
open field locomotion (mice): induced mouse hyperlocomotion
